{"source": "patent US20200216463A1", "about": "“THAILANSTATIN ANALOGS” (priority 2017, published 2020)", "tested_on": "NCI-N87 human gastric cancer xenografts", "test": "In vivo efficacy, subcutaneous NCI-N87 xenograft, tumor volume", "set-up": "species or system female Balb/c nude mice", "conditions": "all dose levels and schedules of the substance (Groups 2-8)", "data": [{"substance": "ado-trastuzumab emtansine [Kadcyla]", "values": [{"measurement": "Effect on tumor volume subsequent to treatment (in words)", "value": "reduced tumor volume"}]}]}
